# Earlier results as cited in patent publication US20180305370A1 (ORPHOMED, INC., priority 2015, published 2018).
# Molecular target: δ opioid receptor (Homo sapiens, UniProt P41143)
# Conditions: cited from earlier work
smiles,measurement,value
"CO[C@]12CC[C@@]3(C[C@@H]1[C@](C)(O)C(C)(C)C)[C@H]1Cc4ccc(O)c5c4[C@@]3(CCN1CC1CC1)[C@H]2O5 [Buprenorphine, buprenorphine]",Activity,Antagonist
